Biological target: human D3R (Homo sapiens, UniProt P35462)
Experiment: [3H]-spiperone filtration binding assay on membranes from CHO–hDRD3 cells
Conditions: for Inhibition Rate at 10 µM: 10 µM test compound, displacement of [3H]-spiperone; for IC50: concentration-displacement curves, [3H]-spiperone

By UniProt entry, the sequences of proteins in these tests, tags left out. Where a name states a change or a piece, a line headed by the entry shows the natural chain unless it says otherwise.
UniProt P35462, whole entry: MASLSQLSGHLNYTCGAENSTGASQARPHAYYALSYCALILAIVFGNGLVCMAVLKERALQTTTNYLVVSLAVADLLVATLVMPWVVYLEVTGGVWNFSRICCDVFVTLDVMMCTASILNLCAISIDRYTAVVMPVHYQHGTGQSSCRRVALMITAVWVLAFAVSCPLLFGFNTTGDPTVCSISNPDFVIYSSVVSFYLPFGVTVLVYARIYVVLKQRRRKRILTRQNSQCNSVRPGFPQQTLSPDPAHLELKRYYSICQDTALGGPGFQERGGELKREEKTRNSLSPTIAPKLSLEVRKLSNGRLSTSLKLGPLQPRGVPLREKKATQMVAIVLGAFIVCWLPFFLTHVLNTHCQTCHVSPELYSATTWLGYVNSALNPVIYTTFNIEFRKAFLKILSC

Inhibition Rate at 10 µM	IC50	Structure (SMILES)
82.4%	4.51 µM	Clc1ccc(Cn2cc3c(-c4ccc5c(c4)OCO5)nnc-3c3cc4c(cc32)OCO4)cc1
80.1%	5.98 µM	O=C(Cn1nc2n(CCc3ccccc3)c(=O)c3ccccc3n2c1=O)c1cccc(Cl)c1
91.1%	3.45 µM	O=c1c2ccccc2n2c(=O)n(Cc3ccccc3)nc2n1CCc1ccccc1
82.3%	4.49 µM	O=S(=O)(c1ccccc1F)N1CCC(c2nc(O)c3nnn(Cc4ccc5c(c4)OCCO5)c3n2)CC1
89.3%	4.11 µM	CN1CCN(c2cc(-c3nc(-c4ccc(Cl)cc4)no3)c3ccccc3n2)CC1
84.2%	4.53 µM	O=C(c1cccn2c(=O)c3cc4ccccc4cc3nc12)N1CCN(c2ncccn2)CC1
